These results are taken from patent US7320803B2, “Crystalline choline ascorbate” (BASF Aktiengesellschaft, priority 2001, dated 2008).

For this data set the following is noted: crystals, in contrast to the choline ascorbate occurring as oil.

Turning to “choline ascorbate [choline ascorbate crystals]”, the hygroscopicity result was “only slightly hygroscopic”.
